Measurements as given in paper PMC3402509 (Investigational New Drugs, 2011).

Settings: not considered dose-limiting

Q: With “cetuximab: a monoclonal antibody recognizing the EGFR ligand-binding domain” as the substance, how does the “grade 3 infusion reaction to cetuximab, patients” value read?
A: another patient
